This passage reports binding signal results from publication PMC7723054.

Some of the results follow.

Holding throughout (experiment): FOREST: bead pull-down of RNA structure library v1, barcode microarray; U1A/LIN28A: 20 mM HEPES pH 7.5, 80 mM KCl, 20 mM NaCl, 10% glycerol, 2 mM DTT, 0.1 ug/uL BSA, 4 C; BG4/CIRBP/DHX36: 10 mM Tris-HCl pH 7.5, 100 mM KCl (or LiCl),; high values mean tight binding
One assay deals with T1, LIN28A (human?, UniProt Q9H9Z2 1-209).
T1 sequence: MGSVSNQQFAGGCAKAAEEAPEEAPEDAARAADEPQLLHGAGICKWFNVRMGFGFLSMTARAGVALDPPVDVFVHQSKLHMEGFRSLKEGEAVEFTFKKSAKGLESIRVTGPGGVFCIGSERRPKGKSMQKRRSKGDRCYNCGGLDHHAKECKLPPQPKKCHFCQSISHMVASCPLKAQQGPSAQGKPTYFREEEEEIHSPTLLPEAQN

A further assay has as its target T2, CIRBP (Homo sapiens, UniProt Q14011 1-172).
T2 sequence: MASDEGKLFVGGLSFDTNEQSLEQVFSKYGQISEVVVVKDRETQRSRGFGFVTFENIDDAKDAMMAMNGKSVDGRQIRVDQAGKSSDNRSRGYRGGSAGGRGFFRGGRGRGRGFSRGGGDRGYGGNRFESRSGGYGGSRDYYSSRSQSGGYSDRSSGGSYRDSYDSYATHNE

A further assay addresses T3, DHX36 (Homo sapiens, UniProt Q9H2U1 1-1008).
T3 sequence: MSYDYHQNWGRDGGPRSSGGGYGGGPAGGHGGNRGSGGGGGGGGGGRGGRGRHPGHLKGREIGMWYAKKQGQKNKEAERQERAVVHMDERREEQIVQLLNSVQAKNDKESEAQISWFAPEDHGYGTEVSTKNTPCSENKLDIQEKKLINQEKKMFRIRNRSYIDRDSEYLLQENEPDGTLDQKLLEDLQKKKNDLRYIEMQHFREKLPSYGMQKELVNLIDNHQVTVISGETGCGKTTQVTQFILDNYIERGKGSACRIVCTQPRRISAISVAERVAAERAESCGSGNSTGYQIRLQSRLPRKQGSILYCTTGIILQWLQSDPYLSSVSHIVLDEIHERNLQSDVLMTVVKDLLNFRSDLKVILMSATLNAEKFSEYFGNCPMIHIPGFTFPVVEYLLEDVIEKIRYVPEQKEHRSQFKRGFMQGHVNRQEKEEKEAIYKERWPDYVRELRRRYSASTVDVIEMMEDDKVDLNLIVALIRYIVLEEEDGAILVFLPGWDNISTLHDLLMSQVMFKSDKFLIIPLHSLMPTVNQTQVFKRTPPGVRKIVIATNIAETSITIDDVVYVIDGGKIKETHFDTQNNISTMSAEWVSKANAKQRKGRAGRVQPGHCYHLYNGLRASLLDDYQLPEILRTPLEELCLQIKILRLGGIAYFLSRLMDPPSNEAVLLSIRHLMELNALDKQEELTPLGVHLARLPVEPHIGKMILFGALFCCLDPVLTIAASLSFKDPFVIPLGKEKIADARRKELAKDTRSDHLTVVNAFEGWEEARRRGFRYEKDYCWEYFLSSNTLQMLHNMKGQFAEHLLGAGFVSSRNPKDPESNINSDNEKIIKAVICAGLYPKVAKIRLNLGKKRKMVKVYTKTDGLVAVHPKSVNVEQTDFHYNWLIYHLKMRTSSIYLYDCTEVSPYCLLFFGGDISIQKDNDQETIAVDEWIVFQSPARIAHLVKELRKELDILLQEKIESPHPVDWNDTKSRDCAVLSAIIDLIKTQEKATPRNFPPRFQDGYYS

B1: hsa-mir-1303 (structured_RNA)
RNA: GGGAAAGUCCGUGGAUCAAGCCAUCUUGGGUGUACGAAGUUUCAGCUACAAUUUUUUUUUUUUUAAAUUUUAGCUGAAGCUUCGUGCAC
Regarding B1, the values for the binding signal in the assay with LIN28A, with CIRBP and with DHX36 were -1.6 z-score, -0.0764 z-score and -0.103 z-score, respectively.

B2: hsa-mir-4763 (structured_RNA)
RNA: GGGAAUGAAAACCCGUAGCGUAAACAGAGGUGUACGAAGUUUCAGCUGCUCUGGUGACUGAGGACCGCCAGGCAGCUGAAGCUUCGUGCAC
As to B2, the binding signal was -1.56 z-score in the assay with LIN28A, -0.0924 z-score with CIRBP and -1.05 z-score with DHX36.

B3: hsa-mir-653 (structured_RNA)
RNA: GGGAGCAAGAGGUUAGACAAACCAACUCGGUGUACGAAGUUUCAGCACUGAACCAGCUUCAAACAAGUUCACUGCUGAAGCUUCGUGCAC
Regarding B3, the binding signal in the assay with LIN28A is -1.45 z-score; with CIRBP, -2.02 z-score; in the assay with DHX36 it was 0.243 z-score.

B4: hsa-mir-593 (structured_RNA)
RNA: GGGACAGACGAACGCCGACAAGUGUUCCGGUGUACGAAGUUUCAGCCACCAGCCAGGCAUUGCUCAGCCCGUUUCCCUCUGGGGGAGCAAGGAGUGGUGCUGGGUUUGUCGCUGAAGCUUCGUGCAC
As for B4, the binding signal was -1.58 z-score with LIN28A, -0.865 z-score in the assay with CIRBP and 0.0126 z-score with DHX36.

B5: hsa-mir-8058 (structured_RNA)
RNA: GGGACGUCGAGUCAUAGCUGGAAAGCGGGGUGUACGAAGUUUCAGCCCAGGCCCCACGGAGAACCAGGGCACCUGGGCUGAAGCUUCGUGCAC
As to B5, the binding signal with LIN28A is -1.5 z-score; with CIRBP it was -0.948 z-score; with DHX36, -0.453 z-score.

B6: hsa-mir-548h-2 (structured_RNA)
RNA: GGGAGAAUCGGAGCGUGCUCGAUACCACGGUGUACGAAGUUUCAGCUGUCAUUACUUUCAAUGGCAGCUGAAGCUUCGUGCAC
For B6, the binding signal is -1.51 z-score with LIN28A, -0.482 z-score in the assay with CIRBP and 0.667 z-score in the assay with DHX36.

B7: hsa-mir-525 (structured_RNA)
RNA: GGGAACACGGGUUGAGAAUCAGCCUAUAGGUGUACGAAGUUUCAGCUUUCUCUUAUGUGAAAAAAAAGAAGGCUGAAGCUUCGUGCAC
On to B7, for which the binding signal is -1.5 z-score in the assay with LIN28A, -0.872 z-score with CIRBP and -1.21 z-score in the assay with DHX36.

B8: hsa-mir-5691 (structured_RNA)
RNA: GGGAACCUGCUAUAGGAACCGAAUCCUGGGUGUACGAAGUUUCAGCAAGCUGACAGACAGCUGGCUGAAGCUUCGUGCAC
As for B8, the binding signal is -1.49 z-score with LIN28A, -0.123 z-score with CIRBP and 0.27 z-score with DHX36.

B9: hsa-mir-3121 (structured_RNA)
RNA: GGGAAGGAACCAGUCAUAAAGGAUUACCGGUGUACGAAGUUUCAGCUUUAAGACACCCUGUACCUUAAAGCUGAAGCUUCGUGCAC
Take B9: the binding signal with LIN28A was -1.5 z-score; in the assay with CIRBP, -1.26 z-score; with DHX36, -1.54 z-score.

B10: hsa-mir-1268b (structured_RNA)
RNA: GGGAGCUCGGAUCCCAAUGCUCAAUCUGGGUGUACGAAGUUUCAGCGGUGGGUGCCGCUGAAGCUUCGUGCAC
As to B10, the values for the binding signal with LIN28A, with CIRBP and with DHX36 were -1.53 z-score, -0.692 z-score and -0.931 z-score, respectively.

B11: hsa-mir-6819 (structured_RNA)
RNA: GGGAAACCAACUAUUCGGACCUUCCUUGGGUGUACGAAGUUUCAGCGAGCUGGGUGGGGUGCCAAGCCUGCUGAAGCUUCGUGCAC
As to B11, the results for the binding signal with LIN28A, with CIRBP and in the assay with DHX36 were -1.45 z-score, -0.308 z-score and 0.12 z-score, respectively.

B12: NEAT1_ParasoR_ID15 (structured_RNA)
RNA: GGGAAUCGAGCUAGAGGCGACCAAUGAAGGUGUACGAAGUUUCAGCUAAUUAGGCGUUUGUCUUUUUAGCUGAAGCUUCGUGCAC
As for B12, the binding signal in the assay with LIN28A was -1.54 z-score; in the assay with CIRBP, 1.03 z-score; with DHX36, -0.225 z-score.

B13: hsa-mir-548ai (structured_RNA)
RNA: GGGAACGGAAUUGGAGCCUAGACGCAAUGGUGUACGAAGUUUCAGCCCCAUUUAAAAUAUGGAAGCUGAAGCUUCGUGCAC
For B13, the values for the binding signal with LIN28A, with CIRBP and in the assay with DHX36 were -1.58 z-score, 0.207 z-score and -0.0326 z-score, respectively.

B14: hsa-mir-1254-1 (structured_RNA)
RNA: GGGAAAUGGGCAUCUGGCUAUCUCACCGGGUGUACGAAGUUUCAGCCAGUGAACUAUCAUUGUGCCACUGGCUGAAGCUUCGUGCAC
On to B14, for which the binding signal was -1.58 z-score with LIN28A, -0.123 z-score with CIRBP and 0.0231 z-score with DHX36.

B15: hsa-mir-586 (structured_RNA)
RNA: GGGAACUUGACUAAGCUGUUGACCCAGAGGUGUACGAAGUUUCAGCGUCCCAAUACAUGUGGGCCGCUGAAGCUUCGUGCAC
With B15, the binding signal was -1.5 z-score with LIN28A, 0.0449 z-score in the assay with CIRBP and -1.02 z-score with DHX36.

B16: hsa-mir-602 (structured_RNA)
RNA: GGGCAAACAACGGAGUGGGUCGACUCUUGGUGUACGAAGUUUCAGCGCCCGCUGUGUUCACUCGGGCGCUGAAGCUUCGUGCAC
As to B16, the binding signal with LIN28A was -1.53 z-score; with CIRBP, -1.32 z-score; with DHX36, -0.769 z-score.

B17: hsa-mir-1267 (structured_RNA)
RNA: GGGACCAGCGACCUCCAGUCUUAGCUGUGGUGUACGAAGUUUCAGCCCCACCUCCAGCAUUGGGGCUGAAGCUUCGUGCAC
On to B17, for which the binding signal in the assay with LIN28A is -1.49 z-score; in the assay with CIRBP it was -3.82 z-score; with DHX36, -1.49 z-score.

B18: hsa-mir-6894 (structured_RNA)
RNA: GGGACCAAAUGAAACGGGACGCACACUAGGUGUACGAAGUUUCAGCGCCAGACAUGCUCUUGCGCUGAAGCUUCGUGCAC
For B18, the binding signal with LIN28A is -1.55 z-score; with CIRBP, -0.257 z-score; in the assay with DHX36, -0.995 z-score.

B19: hsa-mir-187 (structured_RNA)
RNA: GGGAAGUAUACGCCAAUGCCGAAUCUGGGGUGUACGAAGUUUCAGCCCGGGCGCUGCUCUGACCCCUCGUGCUGAAGCUUCGUGCAC
Regarding B19, the binding signal was -1.55 z-score with LIN28A, -0.811 z-score in the assay with CIRBP and -0.799 z-score in the assay with DHX36.

B20: hsa-mir-548bb (structured_RNA)
RNA: GGGAAAAUGAACCGCCGCGACUUUAAAGGGUGUACGAAGUUUCAGCUUGCCCAAGCUGAAGCUUCGUGCAC
As for B20, the binding signal in the assay with LIN28A was -1.51 z-score; with CIRBP it was -0.879 z-score; in the assay with DHX36, -0.607 z-score.

B21: hsa-mir-8071-1_8071-2 (structured_RNA)
RNA: GGGAAACUACUAGCUAGCAAGUAAGGGCGGUGUACGAAGUUUCAGCCCGAGUGAUCUCGGUGCUGAAGCUUCGUGCAC
For the molecule B21, the results for the binding signal with LIN28A, with CIRBP and with DHX36 were -1.56 z-score, -0.367 z-score and -1.99 z-score, respectively.

B22: hsa-mir-372 (structured_RNA)
RNA: GGGACGGUACACUGUGAACCGUUCCUACGGUGUACGAAGUUUCAGCUAUUCUGAUGUCCAAGUGGAAAGCUGAAGCUUCGUGCAC
In the case of B22, the binding signal with LIN28A was -1.55 z-score; with CIRBP, -0.638 z-score; with DHX36, -1.75 z-score.

B23: hsa-mir-5692a-2_5692a-1 (structured_RNA)
RNA: GGGAUAUGAACAGUCGUUUGUCUCGGGAGGUGUACGAAGUUUCAGCGUGUACCUCAUGUGUGUACACGCUGAAGCUUCGUGCAC
Take B23: the binding signal with LIN28A was -1.45 z-score; with CIRBP it was 0.497 z-score; with DHX36, -1.56 z-score.

B24: hsa-mir-185 (structured_RNA)
RNA: GGGAAAGCAUCCUUGGACUUGACCACCCGGUGUACGAAGUUUCAGCUCCUGAUGGUCCCCUCCCCAGGGGCUGAAGCUUCGUGCAC
Turning to B24, the binding signal was -1.48 z-score with LIN28A, -0.585 z-score with CIRBP and -0.503 z-score with DHX36.

B25: hsa-mir-3618 (structured_RNA)
RNA: GGGAAAUAAGACCCGGGAUUCAAAACGAGGUGUACGAAGUUUCAGCGGCAGUGGUUCUAAAAGCUGUCGCUGAAGCUUCGUGCAC
Consider B25, for which the binding signal was -1.52 z-score with LIN28A, -1.47 z-score with CIRBP and -1.35 z-score with DHX36.

B26: hsa-mir-4767 (structured_RNA)
RNA: GGGAGCAAUGGCAUGAGCUAAGAACUUCGGUGUACGAAGUUUCAGCCGCCCGACUUCGGGGGCUGAAGCUUCGUGCAC
For B26, the binding signal with LIN28A was -1.48 z-score; in the assay with CIRBP, 0.716 z-score.
